# According to PubChem BioAssay AID864 (The Scripps Research Institute Molecular Screening Center, 2007):
# Sequences of proteins named here, by UniProt entry; tags and fusion partners are left off. A change or cut given only in a name is not applied to a line headed by its entry.
# UniProt O43603: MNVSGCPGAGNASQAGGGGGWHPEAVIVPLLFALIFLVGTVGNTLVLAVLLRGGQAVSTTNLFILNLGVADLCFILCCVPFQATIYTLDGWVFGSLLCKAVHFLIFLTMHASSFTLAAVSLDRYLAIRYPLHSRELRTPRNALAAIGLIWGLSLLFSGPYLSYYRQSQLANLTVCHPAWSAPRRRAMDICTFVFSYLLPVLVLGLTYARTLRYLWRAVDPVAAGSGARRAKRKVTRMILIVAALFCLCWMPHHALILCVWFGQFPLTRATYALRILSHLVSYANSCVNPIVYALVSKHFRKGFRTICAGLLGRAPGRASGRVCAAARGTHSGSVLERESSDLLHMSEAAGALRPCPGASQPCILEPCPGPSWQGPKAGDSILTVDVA
# The entries are a selection whose mix differs from that of the whole data set. Activity calls are given as the source filed them. Cut-off read from the data, not from the text of the source: active = activation above about 8.4%; inactive = the rest.
# Molecular target: Galanin receptor type 2 (Homo sapiens) (UniProt O43603)
# Assay: activators of human galanin receptor 2 – cell-based, confirmation (AID 864);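 note: 0% = buffer-only vehicle wells and 100% = full reference agonist response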
# Conditions: GALR2-expressing cells, agonist activation; at 5.6 µM; stronger effect = higher value
smiles,measurement,value
CCC(C)N(CC(C)C)C(=S)SC(NC(C)=O)C(Cl)(Cl)Cl (stereo unspecified),activation,inactive: -1.41%
